Results taken from paper PMC9841530 (Journal of Medicinal Chemistry, 2022).

Type: in vivo, New Zealand White Rabbit
Conditions: rabbit, up to 72 h except for 0.5 h following administration; 0.1 mg/eye

COc1ccc(-c2ccnc3cc(C(=O)N4CCN(C(=O)c5ccccc5)[C@@H](C)C4)nn23)cc1OC [16d, (S)-(4-Benzoyl-3-methylpiperazin-1-yl)(7-(3,4-dimethoxyphenyl)pyrazolo[1,5-a]pyrimidin-2-yl)methanone]
mean plasma concentrations: below the lower limit of quantitation
